The text below walks through data of patent US20250161478A1, “LINKER PAYLOADS AND CONJUGATES THEREOF” (priority 2021, published 2025).

The subject of data set [1] is HCC-1954 trastuzumab-resistant Her2-positive xenograft tumors. The data set can be described thus: In vivo efficacy in HCC-1954 tumor xenograft mice. Also noted: species or system immunodeficient nude mice (Balb/cAnNRj-Foxn1nu-nu). The note with it: 10 mg/kg i.v. QWx4, six mice/group. The text has this: In vivo anti-tumor efficacy of ADC of trastuzumab and maleimidoacetyl-β-Ala-Val-Ser(Glc)-PAB-MMAU, DAR=8, prepared and maleimide-stabilized as described above (MMAU-ADC) was compared to trastuzumab. HCC-1954 cancer cells were obtained from the ATCC (USA) and cultured according to the manufacturer's instructions to study efficacy of antibody-drug conjugates in trastuzumab-resistant Her2-positive xenograft tumors in immunodeficient nude mice (Balb/cAnNRj-Foxn1nu-nu). […] No potential signs of toxicity were recorded. […] Tumor growth was followed by palpation. […] Unconjugated antibody (trastuzumab: Herceptin, Roche) was used in this study as the control treatment.

Data set [2] is described as follows: Maleimide conjugate de-conjugation in the presence of oxidized glutathione. The data set is classed as physicochemical. The note with it: 5 mM oxidized glutathione, 50 mM HEPES pH 7.4, 37° C., 10-day experiment. The protocol: Transfer of the linker-payload from the ADC to glutathione was monitored by MALDI-TOF MS at 0, 1, 2, 3, 7 and 10 days. Cysteamine-linker-payload was made for use as an internal standard by incubating MA-Ac-β-Ala-Val-Ser(O-Glc)-PAB-MMAU with an excess of cysteamine for two hours at room temperature, after which the formation of the correct product was verified by MALDI-TOF MS. The timepoint samples (á 5 μL) were purified with miniaturized Poros R2 columns together with the internal standard, same amount of standard molecule in each analysis. The samples were eluted onto target plate into two spots. DHB was used as a matrix. The averages of the corresponding peaks of internal standard and sample in the two spots were calculated at the flowing m/z values: cysteamine-AuM (internal standard, maleimide not hydrolyzed) [M+H]^+ 1676.9, [M+Na]^+ 1698.9, [M+2Na—H]^+1720.9; glutathione-AuMc [M+H]^+ 1892.1, [M+Na]^+ 1914.1, [M+2Na—H]^+1936.1; glutathione-AuM (hydrolyzed maleimide) [M+H]^+ 1925.1, [M+Na]^+ 1947.1, [M+2Na—H]^+1969.1. The corresponding peak intensities were summed, and the ratios of linker-associated signals and the internal standard were calculated.

For “MMAU-ADC: ADC of trastuzumab and maleimidoacetyl-β-Ala-Val-Ser(Glc)-PAB-MMAU, DAR=8”, the “mice with tumors shrinked without regrowth” value in data set [1] (61 days treatment and follow-up) was 6/6.
Take “TRAuMc: trastuzumab conjugated with MA-caproyl-Val-Ser(β-Glc)-PAB-MMAU (AuMc), DAR 7.9”: in data set [2], the “de-conjugation rate compared to TRAuM” value came to 10 fold.
Take “trastuzumab: unconjugated antibody (trastuzumab: Herceptin, Roche), control treatment [reference compound]”: in data set [1] (during 61 day treatment and follow-up), the average tumor size result is reported as “over 500 mm^3”.
